Data from patent publication US8470889B2 (TRT Pharma Inc., priority 2008, dated 2013).

Molecular target: T1, W741C mutated AR (Homo sapiens, UniProt P10275, W742C)
T1 sequence (P10275 1-920 W742C): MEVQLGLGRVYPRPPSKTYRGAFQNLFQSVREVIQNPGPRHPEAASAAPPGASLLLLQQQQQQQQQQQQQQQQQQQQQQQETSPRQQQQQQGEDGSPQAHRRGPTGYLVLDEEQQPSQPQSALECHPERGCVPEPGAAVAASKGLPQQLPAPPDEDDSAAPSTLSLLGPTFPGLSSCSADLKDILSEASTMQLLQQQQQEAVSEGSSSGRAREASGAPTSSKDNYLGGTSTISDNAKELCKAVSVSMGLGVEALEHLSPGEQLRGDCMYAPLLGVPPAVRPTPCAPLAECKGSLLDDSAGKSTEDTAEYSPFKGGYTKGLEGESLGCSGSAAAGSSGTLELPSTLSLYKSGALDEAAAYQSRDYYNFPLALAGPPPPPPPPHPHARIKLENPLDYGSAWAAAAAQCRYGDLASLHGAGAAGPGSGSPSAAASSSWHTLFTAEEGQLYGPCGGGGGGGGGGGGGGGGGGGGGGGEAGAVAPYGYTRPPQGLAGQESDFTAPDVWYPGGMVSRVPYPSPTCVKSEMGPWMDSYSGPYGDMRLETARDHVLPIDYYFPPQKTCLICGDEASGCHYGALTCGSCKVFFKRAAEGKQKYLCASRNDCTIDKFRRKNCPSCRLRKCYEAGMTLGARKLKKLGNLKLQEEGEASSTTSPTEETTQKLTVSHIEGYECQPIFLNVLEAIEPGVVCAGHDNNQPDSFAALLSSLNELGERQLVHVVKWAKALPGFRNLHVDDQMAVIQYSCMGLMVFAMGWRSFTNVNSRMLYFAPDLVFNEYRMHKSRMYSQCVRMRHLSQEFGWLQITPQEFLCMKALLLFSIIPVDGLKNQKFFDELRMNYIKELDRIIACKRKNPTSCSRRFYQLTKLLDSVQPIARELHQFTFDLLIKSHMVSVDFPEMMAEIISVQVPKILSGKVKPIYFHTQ
Assay: Luciferase assay for AR transactivation, W741C AR, PC-3 cells
Assay type: cell-based
Design: Antiandrogenic activity evaluated by luciferase assay in PC-3 cells W741C: key to the marks not given beside the values
Details: 0.1 nM DHT; for suppression of DHT-induced transactivation of W741C AR: test compound 0.1-1 μM, PC-3 cells; for Antiandrogenic activity evaluated by luciferase assay in PC-3 cells W741C: test compound 1 μM

| SMILES | suppression of DHT-induced transactivation of W741C AR | Antiandrogenic activity evaluated by luciferase assay in PC-3 cells W741C |
| --- | --- | --- |
| CC1(C)CCC(O)C=C1/C=C/C(=O)/C=C/c1cnc2ccccc2c1 (stereo not drawn) [Compound B95] | effective | ++ |
| CC1(C)CCC(O)C=C1/C=C/C(=O)/C=C/c1csc2ccccc12 (stereo not drawn) [Compound B92] | pure antagonists | ++ |
| CC1=C(/C=C/C(=O)/C=C/c2cccc(C(F)(F)F)c2)C(C)(C)CCC1O (racemic) [Compound B25] | dose-dependent activity | – |
| CC(C)(O)C(=O)Nc1ccc([N+](=O)[O-])c(C(F)(F)F)c1 [OHF, hydroxyflutamide, reference compound] | – | ++ |
